The text below walks through data of patent US4975434A, “Antiviral and anticancer cyclopentenyl cytosine” (priority 1989, dated 1990).

Data set [1] deals with ATH8 host cell line.
Data set [2] deals with HIV (AIDS virus). In kind it is cell-based.

Turning to `Nc1ccn([C@@H]2C=C(CO)[C@@H](O)[C@H]2O)c(=O)n1` [CPE-C], in data set [1], the “cytotoxicity to host cell line” value was “potent cytotoxicity”. Moreover, the “anti-HIV (retroviral) activity” value in data set [2] was “No anti-HIV (retroviral) activity”.
